Test results as given in paper PMC10813319 (Biomedicines, 2024).

Tested on: developing synapses (PSD95/VGLUT1 contacts) in Day 55 human neurons

## C[C@H](O)[C@@H](N)C(=O)N[C@@H](C(=O)N[C@H](CC(N)=O)C(=O)N[C@H](Cc1ccc(O)cc1)C(=O)N[C@@H](C(=O)O)[C@H](C)O)[C@H](C)O [RAP-103]
Aβd/t ± RAP-103 0.1 nM for 4–5 days, PSD95/VGLUT1 contacts normalized to MAP2 area
  Aβd/t-induced decline in developing synapses, human neurons: completely prevented
RAP-103 0.1 nM alone for 4–5 days
  Effect of RAP-103 alone on developing synapses, human neurons: no alteration in developing synapses
